Measurements from patent US20090098115A1, “Cell lines and animal models of HER2 expressing tumors” (priority 2006, published 2009).

How the values were obtained:
[1] = tested on: BT-474EEI cells; test: In vitro cell proliferation assay (Cell Titer-Glo), BT-474EEI; format: cell-based, human; conditions: 0.0001 ug/ml to 10 ug/ml, 72 h (FIGS. 7B, 8B)
Procedure: (§1) BT-474 and BT-474EE1 cells were plated in 96-well microtiter plates and incubated overnight at 37° in a humidified atmosphere of 5% CO2. Cells were treated with a range of concentrations of trastuzumab, trastuzumab-MCC-DM1, or Tarceva from 0.0001 ug/ml to 10 ug/ml. After incubation for 72 h, Cell Titer-Glo reagent (Promega, Madison, Wis.) was added to the wells, and after a 10-min incubation at room temperature, the luminescent signal was recorded.

[2] = tested on: BT-474 cells; test: In vitro cell proliferation assay (Cell Titer-Glo), BT-474; format: cell-based, human; conditions: BT-474, 0.0001 ug/ml to 10 ug/ml, 72 h (FIGS. 7A, 8A)
Procedure: as §1

[3] = tested on: BT-474JB xenograft tumors; test: BT-474JB xenograft tumor response to naked trastuzumab; format: in vivo, mice; conditions: BT-474JB xenografts with exogenous estrogen pellets, different dose levels (FIG. 3)
Source text: The BT-474JB cells were obtained from Jose Baselga (Vall d'Hebron University Hospital, Barcelona, Spain.). The JB cells were derived by obtaining a BT-474 xenograft tumor and re-establishing the cells in culture. […] A fast-growing tumor was obtained to put back into culture. These cells can then be grown up for further xenograft studies.
BT-474JB cells form xenograft tumors in the presence of exogenous estrogen pellets.

[4] = tested on: HER2-overexpressing metastatic breast cancers; conditions: patients with extensive prior anti-cancer therapy; cited from earlier work
[5] = tested on: BT-474EEI xenograft tumors; test: BT-474EEI xenograft trastuzumab efficacy study; format: in vivo, beige nude mice; conditions: BT-474EEI in mammary fat pad, no estrogen; trastuzumab 10 mg/kg IV once a week for 4 weeks; conjugate on days 0, 7, 26 and 49 (FIG. 4)
Procedure: Cells were grown in DMEM: Ham's F-12 medium containing 10% FBS and 2 mM 1-glutamine. They were detached from the flasks with 5 mM EDTA in 150 mM NaCl, washed and resuspended in culture medium. The cell suspension is mixed 50:50 with cold phenol red-free matrigel (Becton Dickinson) for a final cell number of 10^8 per ml. Mice were injected with 0.2 ml for 20 million cells per mouse inoculum.
Female Beige nude mice (Harlan Sprague Dawley, Madison, Wis.) 6-8 weeks of age were injected with 2×10^7 BT-474EEI cells into the mammary fat pad in a volume of 0.2 ml. Tumors were allowed to grow and were then measured in two dimensions using a caliper. Tumor volume was expressed in mm^3 using the formula: V=(a×b^2)×0.5, where a and b are the long and the short diameters of the tumor, respectively. Tumors were measured and mice were grouped into groups of 9 mice with a mean tumor volume between 100-200 mm 3. Trastuzumab at 10 mg/kg and a Vehicle Control were injected IV once a week for 4 weeks (Day 0, 7, 14, 24). Trastuzumab-MC-vc-PAB-MMAF antibody drug conjugate was injected on days 0, 7, 26 and 49. In the trastuzumab-MC-vc-PAB-MMA Fantibody conjugate, MC-vc-PAB is a linker, which stands for Maleiamide Caproyl, val-cit, paraminobenzoic acid (the PAB self immolates and is released). […] Tumors were measured twice a week throughout the experiment. […]

| Substance | cell proliferation [1] | cell proliferation [2] | response of xenograft tumors to treatment [3] | clinical activity [4] | growth of xenograft tumors / sensitivity to treatment [5] |
| --- | --- | --- | --- | --- | --- |
| trastuzumab: recombinant humanized version of the murine HER2 antibody 4D5 | little change | substantially reduced in a dose-dependent manner | extremely sensitive | clinically active | substantially less sensitive; also recorded: does not show activity |
| trastuzumab-MC-vc-PAB-MMAF | – | – | – | – | significantly inhibited; also recorded: significant anti-tumor inhibition |
| Trastuzumab-MCC-DM1 | substantially decreased in a dose-dependent manner | substantially reduced in a dose-dependent manner | – | – | – |

“Also recorded” adds a separate entry of the source.
